Assay results from ChEMBL document CHEMBL3739416, “Discovery of a marine-derived bis-indole alkaloid fascaplysin, as a new class of potent P-glycoprotein inducer and establishment of its structure-activity relationship” (Eur J Med Chem, 2016).

System: LS180
Experiment: Induction of P-glycoprotein expression in human LS180 cells at 1 uM by Western blot analysis relative to control
Assay type: cell-based

O=C1c2ccccc2-[n+]2ccc3c([nH]c4ccccc43)c21.[Cl-] [FASCAPLYSIN CHLORIDE]
fold change (FC): 4
